Test results reported in patent US20250034115A1, “CRYSTALLINE FORMS OF C-C CHEMOKINE RECEPTOR TYPE 4 ANTAGONIST AND USES THEREOF” (RAPT THERAPEUTICS, INC., priority 2023, published 2025).
Read-outs that look alike come from different tables or passages of the source.

Columns and labels:
[1] = dynamic vapor sorption from 5% relative humidity to 95% relative humidity at 25° C.; hemi-L-tartrate hydrate

SMILES	variability in hydration state (weight gain/loss) [1] [%]	storage stability (6 months of storage under accelerated stability conditions (40° C. and 75% relative humidity))	storage stability (12 months of storage at controlled room temperature and humidity (25° C. and 40% relative humidity))
Cc1nc(N2CC([C@H]3CCCN(C4CC(C)(C(=O)O)C4)C3)C2)nc(N[C@H](C)c2ccc(Cl)cc2Cl)c1Cl (stereo partly drawn) [Form E, (1R,3r)-3-((R)-3-(1-(5-chloro-4-(((R)-1-(2,4-dichlorophenyl)ethyl)amino)-6-methylpyrimidin-2-yl)azetidin-3-yl)piperidin-1-yl)-1-methylcyclobutane-1-carboxylic acid hemi-L-tartrate hydrate]	~16	–	–
Cc1nc(N2CC([C@H]3CCCN(C4CC(C)(C(=O)O)C4)C3)C2)nc(N[C@H](C)c2ccc(Cl)cc2Cl)c1Cl (stereo partly drawn) [Form F, (1R,3r)-3-((R)-3-(1-(5-chloro-4-(((R)-1-(2,4-dichlorophenyl)ethyl)amino)-6-methylpyrimidin-2-yl)azetidin-3-yl)piperidin-1-yl)-1-methylcyclobutane-1-carboxylic acid hemi-L-tartrate hydrate]	~3	outstanding stability	outstanding stability
